Assay results from paper PMC9332204, “Study of Novel Peptides for Antimicrobial Protection in Solution and on Cotton Fabric” (Molecules, 2022).

System: HEp-2 cells
Test: Cytotoxicity assay, neutral red uptake
Type: cell-based
Settings: HEp-2 monolayer, 48 h, 37 °C, OD 540 nm, Table 5
Experimental: Different concentrations of the peptides (with 0.1 mL/well), properly diluted in a maintain medium were used for the inoculation of monolayer cells in 96-well plates (Costar®, Corning Inc., Kennebunk, ME, USA). A humidified atmosphere at 37 °C and 5% CO2 for 48 h was used for the incubation of the cells. The following procedures were used after a microscopic evaluation: (1) The maintenance medium containing the test compound was removed and the cells were washed; (2) 0.1 mL of maintenance medium supplemented with 0.005% neutral red dye was added to each well; (3) the cells were incubated for a long time (3 h) at 37 °C. […] The optical density (OD) of each well was read at 540 nm using a microplate reader (Biotek Organon, West Chester, PA, USA).

For `NC(=O)c1ncn([C@@H]2O[C@H](CO)[C@@H](O)[C@H]2O)n1` [Ribavirin], the “Cytotoxicity CC50 in HEp-2 Cells” value was 2103 µM/mL.
